Biological target: human EP2 receptor (Homo sapiens (Human), UniProt P43116)
Assay: Measurement of EP2 receptor binding affinity ([3H]PGE2 displacement, membrane fraction of HEK293 cells)
Settings: PGE2 receptor selectivity, Table 4
Procedure: Measurement of EP2 receptor binding affinity was carried out according to the method of Abramovitz et al. (Biochimica et Biophysica Acta, 1483, 285 (2000)). […] The membrane fraction was recovered on glass fiber filter paper (GF/B, available from Whatman PLC) using a cell harvester (M30R, available from Brandel Inc.), and after washing with a buffer solution (10 mM MES-KOH (pH 6.0), 10 mM MgCl2), radioactivity was measured with a liquid scintillation analyzer (2000CA, available from Packard). […] The dissociation constant (Kd value) was calculated by Scatchard analysis. Incidentally, Compound A shown in the table is a sodium salt of {3-[(4-tert-butylbenzyl)(pyridin-3-ylsulfonyl)aminomethyl]phenoxy}-acetic acid (CP-533,536), which is a compound of Example 14e of WO 99/19300A, and is a control compound having EP2 receptor binding affinity.

By UniProt entry, the sequences of proteins in these tests, tags left out. Where a name states a change or a piece, a line headed by the entry shows the natural chain unless it says otherwise.
UniProt P43116: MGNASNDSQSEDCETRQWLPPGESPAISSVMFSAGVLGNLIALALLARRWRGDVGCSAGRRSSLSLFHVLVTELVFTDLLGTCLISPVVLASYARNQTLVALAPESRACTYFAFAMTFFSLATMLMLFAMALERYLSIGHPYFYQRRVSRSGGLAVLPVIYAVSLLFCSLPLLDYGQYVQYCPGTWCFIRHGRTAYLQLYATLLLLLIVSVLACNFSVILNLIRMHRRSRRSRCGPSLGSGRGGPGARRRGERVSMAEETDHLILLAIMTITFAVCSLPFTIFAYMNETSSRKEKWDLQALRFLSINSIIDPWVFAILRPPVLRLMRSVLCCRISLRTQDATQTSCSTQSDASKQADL

Q: Which Ki does the source give for `CCCCC[C@H](O)/C=C/[C@H]1[C@H](O)CC(=O)[C@@H]1C/C=C\CCCC(=O)O` [PGE2, reference compound] here?
A: The Ki was 7.1 nM.
